From patent US12662501B2, “Transcriptome In Vivo Analysis (TIVA) and Transcriptome In Situ Analysis (TISA)” (The Trustees of the University of Pennsylvania, priority 2014, dated 2026) come the findings set out here.

The test system of series [1] is 1-cell-stage zebrafish embryos. The following applies: +/−hv, observed at 24 and 48 hours.

Where two headings read alike, the source gives them in different places.

With “[Ru(bpy)2(3-ethynyl-pyridine)2](PF6)2 [RuBEP]”, where the note is “1-P, in air”, the “quantum yield Φ of photodissociation of one 3-EP ligand” value is 0.33. Also, the ε by setting is: (1P, 445 nm) 6700 M⁻¹ cm⁻¹; (1P, 450 nm) 6700 M⁻¹ cm⁻¹. The εΦ (1P, 450 nm, in air) was 2140. The “toxicity in zebrafish embryos” value in series [1] is given as “non-toxic”. Further, the “damage to 25mer RNA” value in the series with 25mer RNA was “no damage”.
